Measurements reported in article PMC11900971 (International Journal of Molecular Sciences, 2025).

What was measured:
[1] = system: Trypanosoma brucei rhodesiense, STIB 900 strain, bloodstream forms
[2] = system: Plasmodium falciparum, strain NF54, erythrocytic stages

| Compound | SI (T. b. rhod.) [1] | SI (P. falc.) [2] |
| --- | --- | --- |
| O=C1C=C(Cc2ccc(Cl)nc2)C(=O)c2ccccc21 [Compound 4e, 2-[(6-Chloropyridin-3-yl)methyl]-1,4-naphthoquinone] | 8 | 2 |
| O=C1C=C(Cc2ccc(C(F)(F)F)cc2F)C(=O)c2ccccc21 [Compound 4c, 2-{[2-Fluoro-4-(trifluoromethyl)phenyl]methyl}-1,4-naphthoquinone] | 47 | 21 |
| CC1=C(Cc2cccc(NC(=O)C(F)(F)F)c2)C(=O)c2ccccc2C1=O [Compound 2m, 2-Methyl-3-{[3-(2,2,2-trifluoroacetamido)phenyl]methyl}-1,4-naphthoquinone] | 1 | 43 |
| CC1=C(Cc2ccc([N+](=O)[O-])cc2F)C(=O)c2ccccc2C1=O [Compound 2h, 2-[(2-Fluoro-4-nitrophenyl)methyl]-3-methyl-1,4-naphthoquinone] | 1 | 810 |
| CC1=C(Cc2ccc(Cl)nc2)C(=O)c2ccccc2C1=O [Compound 2f, 2-[(6-Chloropyridin-3-yl)methyl]-3-methyl-1,4-naphthoquinone] | 3 | 654 |
| CC(=O)Nc1ccc(CC2=C(C)C(=O)c3ccccc3C2=O)cc1 [Compound 2j, 2-[(4-Acetamidophenyl)methyl]-3-methyl-1,4-naphthoquinone] | 1 | 24 |
| O=C1C(Cc2ccccc2)=C(C(F)(F)F)C(=O)c2ccccc21 [Compound 5a, 2-Benzyl-3-(trifluoromethyl)-1,4-naphthoquinone] | 6 | 3 |
| O=C1C(Cc2ccc(C(F)(F)F)cc2)=C(C(F)(F)F)C(=O)c2ccccc21 [Compound 5b, 2-(Trifluoromethyl)-3-{[4-(trifluoromethyl)phenyl]methyl}-1,4-naphthoquinone] | 1 | 1 |
| CC1=C(Cc2cccc(NC(=O)CCC(F)(F)F)c2)C(=O)c2ccccc2C1=O [Compound 2o, 2-Methyl-3-{[3-(4,4,4-trifluorobutanamido)phenyl]methyl}-1,4-naphthoquinone] | 2 | 131 |
| CC1=C(Cc2ccc(F)cc2C(F)(F)F)C(=O)c2ccccc2C1=O [Compound 2d, 2-{[4-Fluoro-2-(trifluoromethyl)phenyl]methyl}-3-methyl-1,4-naphthoquinone] | 3 | 3099 |
| CC1=C(Cc2cc(F)c(F)cc2F)C(=O)c2ccccc2C1=O [Compound 2i, 2-Methyl-3-[(2,4,5-trifluorophenyl)methyl]-1,4-naphthoquinone] | 2 | 1231 |
| CC1=C(Cc2ccc(OC(F)(F)F)cc2)C(=O)c2ccccc2C1=O [Compound 2q, 2-Methyl-3-{[4-(trifluoromethoxy)phenyl]methyl}-1,4-naphthoquinone] | 2 | 4250 |
| CC(=O)Nc1cccc(CC2=C(C)C(=O)c3ccccc3C2=O)c1 [Compound 2k, 2-[(3-Acetamidophenyl)methyl]-3-methyl-1,4-naphthoquinone] |  | 22 |
| O=C1C=C(Cc2ccc(F)cc2C(F)(F)F)C(=O)c2ccccc21 [Compound 4d, 2-{[4-Fluoro-2-(trifluoromethyl)phenyl]methyl}-1,4-naphthoquinone] | 22 | 17 |
| CC1=C(Cc2cc(C(F)(F)F)ccc2F)C(=O)c2ccccc2C1=O [Compound 2e, 2-{[2-Fluoro-5-(trifluoromethyl)phenyl]methyl}-3-methyl-1,4-naphthoquinone] |  | 7495 |
| CC1=C(Cc2ccc([N+](=O)[O-])cc2)C(=O)c2ccccc2C1=O [Compound 2g, 2-Methyl-3-[(4-nitrophenyl)methyl]-1,4-naphthoquinone] | 1 | 172 |
| CC1=C(Cc2ccc(NC(=O)C(F)(F)F)cc2)C(=O)c2ccccc2C1=O [Compound 2l, 2-Methyl-3-{[4-(2,2,2-trifluoroacetamido)phenyl]methyl}-1,4-naphthoquinone] | 1 | 109 |
| O=C1C=C(Cc2ccc(C(F)(F)F)cc2)C(=O)c2ccccc21 [Compound 4b, 2-{[4-(Trifluoromethyl)phenyl]methyl}-1,4-naphthoquinone] | 38 | 28 |
| O=C1C=C(Cc2ccccc2)C(=O)c2ccccc21 [Compound 4a, 2-Benzyl-1,4-naphthoquinone] | 193 | 22 |
| CC1=C(Cc2ccccc2)C(=O)c2ccccc2C1=O [Compound 2a, 2-Benzyl-3-methyl-1,4-naphthoquinone] | 1 | 126 |
| CC1=C(Cc2ccc(C(F)(F)F)cc2F)C(=O)c2ccccc2C1=O [Compound 2c, 2-{[2-Fluoro-4-(trifluoromethyl)phenyl]methyl}-3-methyl-1,4-naphthoquinone] | 1 | 5377 |
| CC1=C(Cc2ccc(F)cc2)C(=O)c2ccccc2C1=O [Compound 2p, 2-[(4-Fluorophenyl)methyl]-3-methyl-1,4-naphthoquinone] | 2 | 1194 |
| CC1=C(Cc2cc(OC(F)(F)F)ccc2F)C(=O)c2ccccc2C1=O [Compound 2s, 2-{[2-Fluoro-5-(trifluoromethoxy)phenyl]methyl}-3-methyl-1,4-naphthoquinone] | 1 | 2166 |
| CC1=C(Cc2cccc(OC(F)(F)F)c2)C(=O)c2ccccc2C1=O [Compound 2r, 2-Methyl-3-{[3-(trifluoromethoxy)phenyl]methyl}-1,4-naphthoquinone] | 3 | 1641 |
